Paper PMC9837764 (Nature Communications, 2023)

Tested on: 5′-nucleotidase

SMILES: CC(C)OC(=O)[C@H](C)NP(=O)(OC[C@H]1O[C@@H](n2cnc3c(NCc4ccco4)ncnc32)[C@H](O)[C@@H]1O)Oc1ccccc1 (stereo partly drawn) [MB-711, Phenyl (Isopropoxy-L-alaninyl) Kinetin Riboside Phosphoramidate]
- Substrate for 5′-nucleotidase activity: could be used as a substrate in the substitution of AMP
